Test system: HL-60
Assay: HL-60 cell differentiation relative to 1-alpha, 25-dihydroxyvitamin D3
Format: functional, Homo sapiens

Q: `C=C1/C(=C\C=C2/CCC[C@]3(C)[C@@H]([C@H](C)CCCC(C)(C)O)CC[C@@H]23)C[C@H](O)[C@H](C)[C@@H]1O` was tested. Which Relative potency did it give?
A: 13

From ChEMBL document CHEMBL1130618, “A novel and practical route to A-ring enyne synthon for 1 alpha,25-dihydroxyvitamin D3 analogs: synthesis of A-ring diastereomers of 1 alpha,25-dihydroxyvitamin D2 and 3-methyl-1,25-dihydroxyvitamin D3” (1998)
